Results: patent US9096593B2, “Compounds and methods for kinase modulation, and indications therefor” (Plexxikon Inc., priority 2009, dated 2015)
Where two headings read alike, the source gives them in different places.

Chains of the proteins cited; added tags and fusions are not shown. Residues count along the entry.
UniProt P05177, whole entry: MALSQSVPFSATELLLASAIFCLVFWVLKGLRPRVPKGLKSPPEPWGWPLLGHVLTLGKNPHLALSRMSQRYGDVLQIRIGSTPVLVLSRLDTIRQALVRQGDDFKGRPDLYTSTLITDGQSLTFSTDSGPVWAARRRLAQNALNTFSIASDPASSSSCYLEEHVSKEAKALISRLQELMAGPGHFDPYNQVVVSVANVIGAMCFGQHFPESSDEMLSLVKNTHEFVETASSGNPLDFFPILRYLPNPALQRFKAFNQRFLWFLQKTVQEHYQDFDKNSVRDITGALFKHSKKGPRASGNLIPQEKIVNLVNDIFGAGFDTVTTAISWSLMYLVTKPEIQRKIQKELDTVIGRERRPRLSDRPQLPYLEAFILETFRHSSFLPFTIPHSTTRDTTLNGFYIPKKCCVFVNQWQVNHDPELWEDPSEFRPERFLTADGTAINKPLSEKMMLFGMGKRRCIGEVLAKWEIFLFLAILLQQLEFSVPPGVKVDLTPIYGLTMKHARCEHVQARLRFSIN
UniProt P10721, 26-976 limits assumed: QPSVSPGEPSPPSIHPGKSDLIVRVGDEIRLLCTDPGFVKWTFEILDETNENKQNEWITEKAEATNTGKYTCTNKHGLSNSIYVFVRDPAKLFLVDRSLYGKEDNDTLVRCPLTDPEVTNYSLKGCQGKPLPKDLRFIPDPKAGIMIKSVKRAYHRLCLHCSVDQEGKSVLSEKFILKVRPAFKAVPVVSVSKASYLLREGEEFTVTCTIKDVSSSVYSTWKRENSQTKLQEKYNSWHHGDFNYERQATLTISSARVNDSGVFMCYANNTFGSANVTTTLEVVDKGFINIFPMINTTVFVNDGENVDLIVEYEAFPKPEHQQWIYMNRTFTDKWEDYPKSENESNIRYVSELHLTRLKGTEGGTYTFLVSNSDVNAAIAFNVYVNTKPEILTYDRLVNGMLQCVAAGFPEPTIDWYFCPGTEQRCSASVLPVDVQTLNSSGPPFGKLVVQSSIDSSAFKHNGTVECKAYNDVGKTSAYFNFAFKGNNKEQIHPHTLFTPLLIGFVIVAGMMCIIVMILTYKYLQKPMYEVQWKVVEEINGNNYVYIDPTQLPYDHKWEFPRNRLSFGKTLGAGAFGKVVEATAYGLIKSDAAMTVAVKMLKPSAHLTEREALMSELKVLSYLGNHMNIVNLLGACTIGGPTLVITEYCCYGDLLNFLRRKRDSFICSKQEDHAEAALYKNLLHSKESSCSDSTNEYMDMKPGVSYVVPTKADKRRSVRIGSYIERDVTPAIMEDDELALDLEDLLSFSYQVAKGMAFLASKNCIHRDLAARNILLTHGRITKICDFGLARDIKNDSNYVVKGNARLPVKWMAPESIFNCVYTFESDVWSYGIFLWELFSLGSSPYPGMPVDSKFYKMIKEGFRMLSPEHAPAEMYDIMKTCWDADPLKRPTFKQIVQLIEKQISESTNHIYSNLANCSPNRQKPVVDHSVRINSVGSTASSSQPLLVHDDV
UniProt P07333, 20-972 limits assumed: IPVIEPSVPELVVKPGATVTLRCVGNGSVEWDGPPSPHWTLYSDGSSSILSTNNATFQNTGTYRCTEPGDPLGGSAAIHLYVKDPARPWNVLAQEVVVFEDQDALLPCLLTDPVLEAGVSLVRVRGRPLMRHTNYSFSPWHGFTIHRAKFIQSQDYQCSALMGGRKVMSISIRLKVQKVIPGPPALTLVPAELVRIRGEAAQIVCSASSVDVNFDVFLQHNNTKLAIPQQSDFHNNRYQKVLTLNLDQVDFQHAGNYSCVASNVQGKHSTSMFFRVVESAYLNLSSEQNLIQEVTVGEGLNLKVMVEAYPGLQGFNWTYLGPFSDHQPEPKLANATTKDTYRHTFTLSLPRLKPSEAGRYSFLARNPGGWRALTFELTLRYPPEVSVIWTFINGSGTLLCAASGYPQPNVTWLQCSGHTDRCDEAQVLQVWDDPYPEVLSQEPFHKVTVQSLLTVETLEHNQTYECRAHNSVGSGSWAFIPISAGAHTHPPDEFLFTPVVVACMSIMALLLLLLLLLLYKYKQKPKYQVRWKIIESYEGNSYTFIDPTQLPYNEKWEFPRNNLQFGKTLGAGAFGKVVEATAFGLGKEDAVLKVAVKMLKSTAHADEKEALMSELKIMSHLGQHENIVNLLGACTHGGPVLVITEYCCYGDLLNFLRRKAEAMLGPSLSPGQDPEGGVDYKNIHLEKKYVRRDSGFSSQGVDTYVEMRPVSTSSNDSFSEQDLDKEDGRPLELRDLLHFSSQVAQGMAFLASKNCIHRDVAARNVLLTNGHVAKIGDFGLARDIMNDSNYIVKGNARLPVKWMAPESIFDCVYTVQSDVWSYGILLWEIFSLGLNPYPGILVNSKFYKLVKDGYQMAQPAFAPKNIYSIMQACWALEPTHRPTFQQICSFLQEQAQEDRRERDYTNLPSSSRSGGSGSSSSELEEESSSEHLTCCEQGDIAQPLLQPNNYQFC
UniProt P36888, 27-993 limits assumed: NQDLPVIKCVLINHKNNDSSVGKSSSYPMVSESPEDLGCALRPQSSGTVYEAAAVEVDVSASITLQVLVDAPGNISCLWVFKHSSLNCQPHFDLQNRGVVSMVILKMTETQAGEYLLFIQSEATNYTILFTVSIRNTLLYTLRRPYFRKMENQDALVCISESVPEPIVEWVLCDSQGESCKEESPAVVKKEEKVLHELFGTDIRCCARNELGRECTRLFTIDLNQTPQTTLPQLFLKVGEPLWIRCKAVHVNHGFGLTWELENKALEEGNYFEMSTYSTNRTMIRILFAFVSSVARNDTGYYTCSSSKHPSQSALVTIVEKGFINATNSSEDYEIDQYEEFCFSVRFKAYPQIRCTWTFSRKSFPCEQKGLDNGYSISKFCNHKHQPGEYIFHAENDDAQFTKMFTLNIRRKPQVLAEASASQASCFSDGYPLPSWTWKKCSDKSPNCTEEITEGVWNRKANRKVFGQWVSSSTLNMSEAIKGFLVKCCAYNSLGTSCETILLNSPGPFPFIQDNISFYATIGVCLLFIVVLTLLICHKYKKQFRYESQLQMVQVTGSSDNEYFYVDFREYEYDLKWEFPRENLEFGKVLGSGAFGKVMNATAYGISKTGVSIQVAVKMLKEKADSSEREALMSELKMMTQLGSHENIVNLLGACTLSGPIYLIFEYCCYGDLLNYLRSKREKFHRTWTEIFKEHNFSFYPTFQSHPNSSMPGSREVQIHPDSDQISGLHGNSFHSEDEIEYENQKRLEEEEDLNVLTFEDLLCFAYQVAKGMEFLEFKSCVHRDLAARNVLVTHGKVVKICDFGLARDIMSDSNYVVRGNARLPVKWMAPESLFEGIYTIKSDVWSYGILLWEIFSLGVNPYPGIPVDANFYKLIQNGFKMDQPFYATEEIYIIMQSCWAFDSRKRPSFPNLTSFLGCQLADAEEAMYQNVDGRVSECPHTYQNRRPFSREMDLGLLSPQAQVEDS
UniProt P08684, whole entry: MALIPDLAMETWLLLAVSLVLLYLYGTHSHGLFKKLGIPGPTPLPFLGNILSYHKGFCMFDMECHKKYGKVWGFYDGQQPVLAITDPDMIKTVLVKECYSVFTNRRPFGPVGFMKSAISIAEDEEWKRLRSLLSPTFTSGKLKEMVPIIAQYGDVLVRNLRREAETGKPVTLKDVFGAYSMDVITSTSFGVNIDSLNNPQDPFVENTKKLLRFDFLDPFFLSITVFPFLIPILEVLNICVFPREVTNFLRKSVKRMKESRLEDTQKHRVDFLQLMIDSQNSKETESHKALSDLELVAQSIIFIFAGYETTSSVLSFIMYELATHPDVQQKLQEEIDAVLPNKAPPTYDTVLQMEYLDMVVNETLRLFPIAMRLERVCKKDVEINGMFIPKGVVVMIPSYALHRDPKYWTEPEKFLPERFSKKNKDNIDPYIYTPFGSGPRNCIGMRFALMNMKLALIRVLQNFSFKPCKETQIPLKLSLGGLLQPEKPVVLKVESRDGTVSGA
UniProt P10635, whole entry: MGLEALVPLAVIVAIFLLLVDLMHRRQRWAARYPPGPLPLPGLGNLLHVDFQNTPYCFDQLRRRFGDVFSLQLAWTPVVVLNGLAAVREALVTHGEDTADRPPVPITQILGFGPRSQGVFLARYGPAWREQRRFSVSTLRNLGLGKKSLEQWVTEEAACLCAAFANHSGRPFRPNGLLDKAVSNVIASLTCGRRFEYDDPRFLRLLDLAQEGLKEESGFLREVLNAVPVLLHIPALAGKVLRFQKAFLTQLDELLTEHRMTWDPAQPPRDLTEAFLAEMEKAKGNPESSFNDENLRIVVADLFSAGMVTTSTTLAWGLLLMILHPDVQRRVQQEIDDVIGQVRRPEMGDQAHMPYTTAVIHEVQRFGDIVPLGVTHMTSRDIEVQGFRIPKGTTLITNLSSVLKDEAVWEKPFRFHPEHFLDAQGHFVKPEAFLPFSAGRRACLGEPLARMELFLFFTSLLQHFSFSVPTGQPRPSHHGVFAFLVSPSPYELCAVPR
UniProt P11712, whole entry: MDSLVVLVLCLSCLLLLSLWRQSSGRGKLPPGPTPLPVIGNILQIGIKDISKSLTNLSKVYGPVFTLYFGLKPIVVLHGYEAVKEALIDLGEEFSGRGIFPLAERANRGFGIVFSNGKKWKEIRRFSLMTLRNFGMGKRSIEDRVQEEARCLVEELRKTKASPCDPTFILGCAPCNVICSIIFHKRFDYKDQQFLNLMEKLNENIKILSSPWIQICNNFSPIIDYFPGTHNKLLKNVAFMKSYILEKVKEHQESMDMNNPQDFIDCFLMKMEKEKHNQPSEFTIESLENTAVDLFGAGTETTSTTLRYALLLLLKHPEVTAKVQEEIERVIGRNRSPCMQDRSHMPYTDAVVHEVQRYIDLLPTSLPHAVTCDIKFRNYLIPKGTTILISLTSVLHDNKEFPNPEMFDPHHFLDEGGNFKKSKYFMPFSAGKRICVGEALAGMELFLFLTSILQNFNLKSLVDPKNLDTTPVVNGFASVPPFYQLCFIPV
UniProt P33261, whole entry: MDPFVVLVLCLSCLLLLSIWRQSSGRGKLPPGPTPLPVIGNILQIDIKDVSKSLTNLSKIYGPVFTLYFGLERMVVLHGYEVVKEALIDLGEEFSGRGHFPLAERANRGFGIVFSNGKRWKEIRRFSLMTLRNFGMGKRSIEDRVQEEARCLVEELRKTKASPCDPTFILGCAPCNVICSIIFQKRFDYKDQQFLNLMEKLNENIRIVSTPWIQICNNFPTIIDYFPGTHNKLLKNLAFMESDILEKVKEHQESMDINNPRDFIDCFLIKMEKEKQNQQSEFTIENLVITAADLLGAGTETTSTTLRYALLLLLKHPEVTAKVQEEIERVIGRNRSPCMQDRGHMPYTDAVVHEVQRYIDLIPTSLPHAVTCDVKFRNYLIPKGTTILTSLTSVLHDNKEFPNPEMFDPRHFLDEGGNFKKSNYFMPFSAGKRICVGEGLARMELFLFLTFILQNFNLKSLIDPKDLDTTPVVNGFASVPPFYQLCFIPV

Legend:
[1] = system: Osteoclast precursor cells; assay: Osteoclast differentiation assay (acid phosphatase readout); settings: read-out: IC50 in the osteoclast differentiation assay; RANKL and M-CSF
[2] = biological target: CYP1A2 (Homo sapiens (Human), UniProt P05177)
[3] = biological target: BCR-KIT/BaF3 cells (Homo sapiens, UniProt P10721); assay: BCR-KIT/BaF3 cell proliferation assay (ATPlite); type: cell-based; settings: read-out: BCR/BaF3 (IC50 μM) Kit
[4] = biological target: Fms kinase (Homo sapiens (Human), UniProt P07333); assay: Fms kinase biochemical activity assay (AlphaScreen, biotin-(E4Y)10 phosphorylation)
[5] = Turbidity assay of relative solubility in aqueous buffers
[6] = biological target: c-Kit kinase (Homo sapiens (Human), UniProt P10721); assay: c-Kit kinase biochemical activity assay (AlphaScreen, biotin-(E4Y)10 phosphorylation); settings: read-out: Biochemical activity (IC50 μM) Kit
[7] = biological target: Flt-3 kinase (Homo sapiens (Human), UniProt P36888); assay: Flt-3 kinase biochemical activity assay (AlphaScreen, biotin-(E4Y)10 phosphorylation); settings: read-out: Biochemical (IC50 μM) Flt-3; 100 μM ATP
[8] = biological target: CYP3A4(BFC) (Homo sapiens (Human), UniProt P08684); assay: CYP enzyme inhibition, fluorescent substrate; settings: read-out: Cyp IC50 (μM) 3A4(BFC)
[9] = biological target: BCR-FMS/BaF3 cells (Homo sapiens, UniProt P07333); assay: BCR-FMS/BaF3 cell proliferation assay (ATPlite); type: cell-based; settings: for IC50: BCR-FMS/BaF3 cells
[10] = system: MV-4-11 cells; assay: MV-4-11 cell proliferation assay (ATPlite); settings: read-out: Cell based (IC50 μM) MV-4-11 (Flt-3), 3 days
[11] = biological target: CYP3A4(BQ) (Homo sapiens (Human), UniProt P08684); assay: CYP enzyme inhibition, fluorescent substrate; type: in vitro ADME; settings: read-out: Cyp IC50 (μM) 3A4(BQ)
[12] = biological target: CYP2D6 (Homo sapiens (Human), UniProt P10635); assay: CYP enzyme inhibition, fluorescent substrate; type: in vitro ADME; settings: read-out: Cyp IC50 (μM) 2D6
[13] = biological target: CYP2C9 (Homo sapiens (Human), UniProt P11712); assay: CYP enzyme inhibition, fluorescent substrate; type: in vitro ADME; settings: read-out: Cyp IC50 (μM) 2C9
[14] = biological target: CYP2C19 (Homo sapiens (Human), UniProt P33261); assay: CYP enzyme inhibition, fluorescent substrate; type: in vitro ADME; settings: read-out: Cyp IC50 (μM) 2C19

IC50 [1]: < 100 nM
IC50 [2]: > 10000 nM
IC50 [3]: > 0.1 µM
Biochemical activity selectivity (Kit IC50/Fms IC50) ([4]; Kit IC50/Fms IC50, biochemical): > 20
IC50 ([4]; read-out: Biochemical (IC50 μM) Fms, 100 μM ATP): < 0.1 µM
IC50 ([4]; read-out: Biochemical activity (IC50 μM) Fms): < 0.1 µM
IC50 [6]: > 0.1 µM
IC50 [7]: < 0.1 µM
IC50 [8]: > 10 µM
BCR/BaF3 selectivity (Kit IC50/Fms IC50) ([9]; Kit IC50/Fms IC50, BCR-KIT/BaF3 vs BCR-FMS/BaF3 cells): > 20
IC50 ([9]; read-out: BCR/BaF3 (IC50 μM) Fms): < 0.1 µM
IC50 ([9]; read-out: Cell based (IC50 μM) BCR/BaF3 (Fms), 3 days): < 0.1 µM
IC50 [10]: > 0.1 µM
IC50 [11]: > 10 µM
IC50 [12]: > 10 µM
IC50 [13]: > 10 µM
IC50 [14]: > 10 µM
Structure (SMILES): COc1ncc(CNc2ccc(Cc3c[nH]c4ncc(C)cc34)c(F)n2)cc1F
turbidity threshold (L, M, H) 1.4 ([5]; pH 1.4 as headed (method: SGF pH 1.5)): M (moderate solubility if the threshold concentration is 31.3 μM to 250 μM)
turbidity threshold (L, M, H) 4.5 ([5]; pH 4.5 (SIF)): L (low solubility if the threshold concentration is <31.3 μM)
turbidity threshold (L, M, H) 6.8 ([5]; pH 6.8 (SIF)): L (low solubility if the threshold concentration is <31.3 μM)
turbidity threshold (L, M, H) 7.4 ([5]; pH 7.4 (HEPES)): L (low solubility if the threshold concentration is <31.3 μM)
